Source: US20080139457A1, “Therapeutic compositions comprising chorionic gonadotropins and HMG CoA reductase inhibitors” (Virginia Commonwealth University, priority 2005, published 2008)
Entries after “also recorded” stand apart in the source; their conditions may differ.

Tests used:
Assay type in all cases: cell-based, human
ERK½, JNK½, AKT (S473) = assay: Immunoblotting of phosphorylation status of ERK½, JNK½, AKT in LNCaP cells; details: hCG 2 mU/ml, within 6 hours
Procedure: SDS-PAGE and Immunoblotting. The cells were plated at 5×10^5 cells/cm^2 and treated with drugs at the indicated concentrations and after the indicated time of treatment, lysed in whole-cell lysis buffer (0.5 M Tris-HCl, pH 6.8, 2% SDS, 10% glycerol, 1% β-mercaptoethanol, 0.02% bromophenol blue), and the samples were boiled for 30 minutes. The boiled samples were loaded onto 10-14% SDS-PAGE and electrophoresis was run overnight. Proteins were electrophoretically transferred onto 0.22 μm nitrocellulose, and immunoblotted with various primary antibodies against different proteins. All immunoblots were visualized by enhanced chemiluminescence (ECL).
(§1) (1) LNCaP cells were cultured as described above. […] 0-6 hours after treatment, the cells were isolated, lysed in SDS PAGE sample buffer and equal protein concentrations subjected to SDS PAGE followed by immunoblotting to determine the phosphorylation status (activity status) of ERK½, JNK½, AKT (S473) and the expression level of ERK2 protein.
(§2) (2) LNCaP cells were cultured as described above. 12 hours after plating, the cells were treated with vehicle (VEH, PBS) or pertussis toxin (300 ng/ml). 23 hours after plating cells were treated with vehicle (VEH, DMSO) or the ERBB1 inhibitor AG1478 (1 μM).
(4) LNCaP cells were cultured as described above. […] Thirty minutes after irradiation the cells were isolated, lysed in SDS PAGE sample buffer and equal protein concentrations subjected to SDS PAGE followed by immunoblotting to determine the phosphorylation status (activity status) of ERK½ and ERBB1 Y1068 and the expression levels of ERBB1 and ERK2 proteins.
as §1, with “LNCaP” for “(1) LNCaP”, “At the indicated times” for “0-6 hours”, “treatment (12-96 h),” for “treatment,”

PARP1 = PARP1 ADP-ribosylation status (immunoblot) in LNCaP cells; details: hCG 2 mU/ml, 4 Gy, 30 min after irradiation
Procedure: (§3) SDS-PAGE and Immunoblotting. The cells were plated at 5×10^5 cells/cm^2 and treated with drugs at the indicated concentrations and after the indicated time of treatment, lysed in whole-cell lysis buffer (0.5 M Tris-HCl, pH 6.8, 2% SDS, 10% glycerol, 1% β-mercaptoethanol, 0.02% bromophenol blue), and the samples were boiled for 30 minutes. […] All immunoblots were visualized by enhanced chemiluminescence (ECL).
PARP1 Activation and Expression Following Treatment with hCG and Radiation. LNCaP cells were cultured as described above. Twenty four hours after plating, the cells were treated with hCG (2 mU/ml) or vehicle (VEH, PBS) followed 30 minutes later by irradiation (4 Gy).
PARP1 Activation and Expression Following Treatment with an ERBB1 Inhibitor, hCG and Radiation. LNCaP cells were cultured as described above. Twelve hours after plating, the cells were infected with either empty vector virus (CMV) or with a virus to express dominant negative ERBB1 (CD533) at a multiplicity of infection (m.o.i.) of 25. Twenty four hours after plating or 24 h after infection, cells were treated with hCG (2 mU/ml) or vehicle (VEH, PBS), and after 30 minutes were irradiated (4 Gy). Treatment with AG1478 or vehicle (VEH, DMSO) was made either 5 minutes after or 30 minutes before radiation.

LNCaP cells [1] = assay: Cell survival (colony formation) assay in LNCaP cells; details: hCG 2 mU/ml 30 min prior to radiation 0-6 Gy; colonies over 28 days
Procedure: Bioassay for cell survival. LNCaP cells were cultured as described above. […] Ninety six hours after irradiation, media containing hCG was removed and fresh media lacking hCG added. Colonies were permitted to form over the following 28 days after which the media was removed, the cells fixed and stained with crystal violet. Groups of >50 cells were considered to be colonies.
Apoptosis Assay. LNCaP cells were cultured as described above. […] Thirty minutes after hCG exposure, cells were irradiated (4 Gy). Ninety six hours after irradiation, media containing hCG and AG1478 was removed and fresh media lacking hCG/AG1478 added. Colonies were permitted to form over the following 28 days after which the media was removed, the cells fixed and stained with crystal violet. Groups of >50 cells were considered to be colonies.
Bioassay for cell survival. LNCaP cells were cultured as described above. […] Ninety six hours after hCG and lovastatin treatment, media containing hCG and lovastatin was removed and fresh media lacking hCG and lovastatin was added. Colonies were permitted to form over the following 28 days after which the media was removed, the cells fixed and stained with crystal violet. Groups of >50 cells were considered to be colonies.

ERBB1 = assay: Immunoblotting of ERBB1 phosphorylation in LNCaP cells; details: hCG 2 mU/ml, 0-180 min
Procedure: as §3
as §2, with “μM). 24 hours after plating, cells were treated with hCG (2 mU/ml) or vehicle (VEH, PBS).” for “μM).”
(3) LNCaP cells were cultured as described above. 24 hours after plating, the cells were treated with hCG (2 mU/ml) or its vehicle (VEH, PBS).
(4) LNCaP cells were cultured as described above. Twenty four hours after plating cells were pretreated with vehicle (VEH, DMSO), the MEK½ inhibitor PD184352 (1 μM), or the metalloprotease inhibitor GM6001 (1 μM), and then treated 30 minutes afterwards with hCG (2 mU/ml) or its vehicle (VEH, PBS). Thirty minutes after hCG treatment, cells were irradiated (4 Gy). […] Results indicated an increase in ERBB1 Y1173 phosphorylation induced by hCG, 30 min after treatment. This increase was further enhanced by radiation exposure and was abolished by incubation of cells with the specific MEK½ inhibitor PD184352.

PC3 cells = assay: Apoptosis assay in PC3 cells (trypan blue exclusion)
Procedure: Apoptosis assay in PC3 cells (Treatment of hCG and radiation). PC3 cells were cultured as described above. 24 hours after plating, the cells were treated with hCG (ProSpec-Tany) (2 mU/ml) 30 minutes prior to radiation exposure (0-6 Gy). The cells were isolated by trypsinization 96 hours after irradiation. […] The administration of hCG in combination with radiation (6 Gy) promoted the highest percentage of apoptosis.
Activation of ERK ½ and AKT and the Expression of ERK2 Following Treatment with hCG and Lovastatin. PC3 prostate carcinoma cells were cultured as described above.
Apoptosis assay in PC3, 22RW1 and SKOV3 cells.

LNCaP cells [2] = assay: Apoptosis assay in LNCaP cells (trypan blue exclusion)
Procedure: Cell culture. Human prostate cells (PC3 and LCNaP) were purchased from the ATCC were cultured at 37° C. (5% (v/v CO2) in vitro using RPMI supplemented with 10% (v/v) fetal calf serum.
LNCaP cells were cultured as described above. […] The cells were isolated by trypsinization 96 hours after irradiation. The attached and floating cells were combined, and cell viability was determined by trypan blue exclusion assays using a light microscope (*p<0.05 value greater than corresponding vehicle/irradiated+vehicle value; n=3 per data point ±SEM from 3 studies).
LNCaP cells were cultured as described above. […] Caspase inhibitors were re-supplemented every 24 hours. After 96 hours of culture, cell viability numbers were determined MTT assays using a plate reader. The cells were isolated 96 hours after irradiation by trypsinization, the attached and floating cells combined, and cell viability determine by trypan blue exclusion assays using a light microscope.
(2) LNCaP cells were cultured as described above. […] Cells were isolated 96 h after irradiation by trypsinization, the attached and floating cells combined, and cell viability determine by trypan blue exclusion assays using a light microscope.
(§4) LNCaP cells were cultured as described above. […] Cells were isolated 96 hours after irradiation by trypsinization, the attached and floating cells combined, and cell viability determine by trypan blue exclusion assays using a light microscope. Cells were then lysed in SDS PAGE sample buffer and equal protein concentrations subjected to SDS PAGE followed by immunoblotting to determine the PARP1 ADP-ribosylation status (activity status) in the presence or absence of PJ-34.
as §4, with “in Example 1. Twelve hours after plating the cells were transfected using Lipofectamine with either a scrambled siRNA (SCR) or with siRNA molecules to suppress PARP1 or AIF expression (siPARP; siAIF; 10 nM each).” for “above.”, “determine” for “determine the”, “and AIF expression” for “ADP-ribosylation status (activity status)”, “siPARP and siAIF, siRNA molecules, respectively.” for “PJ-34.”

PC-3 cells = assay: Colony formation assay in PC-3 cells; details: hCG with radiation
[3] = pre-treatment with hCG for 12 hours or 6 hours
[4] = pretreatment with hCG for 30-90 min

Human chorionic gonadotropin [hCG]
AKT activity (S473) (ERK½, JNK½, AKT (S473)): did not significantly alter the high basal level of AKT activity
activation of ERK½ (ERK½, JNK½, AKT (S473)): promoted activation of ERK½
activation of JNK½ (ERK½, JNK½, AKT (S473)): to a lesser extent activation of JNK½
activation of the p38 MAPK pathway (ERK½, JNK½, AKT (S473)): did not promote activation of the p38 MAPK pathway
PARP activation (PARP1 ADP-ribosylation), hCG with radiation (PARP1): acted in a greater than additive fashion to cause activation of poly ADP ribosyl polymerase (PARP)
cell survival (colony formation), hCG with radiation (LNCaP cells [1]): promoted a decrease in cell survival when compared to the control; also recorded: radiosensitized
ERBB1 activation: phosphorylation of Y1173 and Y1068 (ERBB1): activated ERBB1; also recorded: prolonged phosphorylation of ERBB1 at Y1173 and Y1068
ERBB1 phosphorylation at Y845 (ERBB1): transient phosphorylation at Y845
ERBB1 phosphorylation at Y992 (ERBB1): little detectable phosphorylation at Y992
apoptosis (cell viability by trypan blue), hCG with radiation (PC3 cells; hCG 2 mU/ml 30 min prior to radiation 0-6 Gy, 96 h after irradiation): promoted apoptosis at a greater percentage than the administration of hCG alone
cell killing as a single agent (PC3 cells; hCG 2 mU/ml, within 96 hours): caused a modest amount of cell killing as a single agent
radiosensitization, long pre-treatment (PC3 cells; [3]): did not significantly radiosensitize
radiosensitization, short pre-treatment (PC3 cells; [4]): enhanced the lethality of radiation
apoptosis / cell death (trypan blue), hCG with radiation (LNCaP cells [2]; hCG 2 mU/ml 30, 60, 90 min prior to radiation (4 Gy), 96 h after irradiation): promoted apoptosis at a greater percentage than the administration of hCG alone; also recorded: greater than additive increase in cell death
cell killing as a single agent (LNCaP cells [2]; hCG 2 mU/ml, within 96 hours): caused a modest amount of cell killing as a single agent
radiosensitization, long pre-treatment (LNCaP cells [2]; [3]): did not significantly radiosensitize
radiosensitization, short pre-treatment (LNCaP cells [2]; [4]): enhanced the lethality of radiation
radiosensitization in colony formation assays (PC-3 cells): radiosensitized
